B1: PARP3 (Homo sapiens) (protein)
chain: MAPKPKPWVQTEGPEKKKGRQAGREEDPFRSTAEALKAIPAEKRIIRVDPTCPLSSNPGTQVYEDYNCTLNQTNIENNNNKFYIIQLLQDSNRFFTCWNRWGRVGEVGQSKINHFTRLEDAKKDFEKKFREKTKNNWAERDHFVSHPGKYTLIEVQAEDEAQEAVVKVDRGPVRTVTKRVQPCSLDPATQKLITNIFSKEMFKNTMALMDLDVKKMPLGKLSKQQIARGFEALEALEEALKGPTDGGQSLEELSSHFYTVIPHNFGHSQPPPINSPELLQAKKDMLLVLADIELAQALQAVSEQEKTVEEVPHPLDRDYQLLKCQLQLLDSGAPEYKVIQTYLEQTGSNHRCPTLQHIWKVNQEGEEDRFQAHSKLGNRKLLWHGTNMAVVAAILTSGLRIMPHSGGRVGKGIYFASENSKSAGYVIGMKCGAHHVGYMFLGEVALGREHHINTDNPSLKSPPPGFDSVIARGHTEPDPTQDTELELDGQQVVVPQGQPVPCPEFSSSTFSQSEYLIYQESQCRLRYLLEVHL
B2: PARP4 (Homo sapiens) (protein)
chain: MVMGIFANCIFCLKVKYLPQQQKKKLQTDIKENGGKFSFSLNPQCTHIILDNADVLSQYQLNSIQKNHVHIANPDFIWKSIREKRLLDVKNYDPYKPLDITPPPDQKASSSEVKTEGLCPDSATEEEDTVELTEFGMQNVEIPHLPQDFEVAKYNTLEKVGMEGGQEAVVVELQCSRDSRDCPFLISSHFLLDDGMETRRQFAIKKTSEDASEYFENYIEELKKQGFLLREHFTPEATQLASEQLQALLLEEVMNSSTLSQEVSDLVEMIWAEALGHLEHMLLKPVNRISLNDVSKAEGILLLVKAALKNGETAEQLQKMMTEFYRLIPHKGTMPKEVNLGLLAKKADLCQLIRDMVNVCETNLSKPNPPSLAKYRALRCKIEHVEQNTEEFLRVRKEVLQNHHSKSPVDVLQIFRVGRVNETTEFLSKLGNVRPLLHGSPVQNIVGILCRGLLLPKVVEDRGVQRTDVGNLGSGIYFSDSLSTSIKYSHPGETDGTRLLLICDVALGKCMDLHEKDFSLTEAPPGYDSVHGVSQTASVTTDFEDDEFVVYKTNQVKMKYIIKFSMPGDQIKDFHPSDHTELEEYRPEFSNFSKVEDYQLPDAKTSSSTKAGLQDASGNLVPLEDVHIKGRIIDTVAQVIVFQTYTNKSHVPIEAKYIFPLDDKAAVCGFEAFINGKHIVGEIKEKEEAQQEYLEAVTQGHGAYLMSQDAPDVFTVSVGNLPPKAKVLIKITYITELSILGTVGVFFMPATVAPWQQDKALNENLQDTVEKICIKEIGTKQSFSLTMSIEMPYVIEFIFSDTHELKQKRTDCKAVISTMEGSSLDSSGFSLHIGLSAAYLPRMWVEKHPEKESEACMLVFQPDLDVDLPDLASESEVIICLDCSSSMEGVTFLQAKQIALHALSLVGEKQKVNIIQFGTGYKELFSYPKHITSNTMAAEFIMSATPTMGNTDFWKTLRYLSLLYPARGSRNILLVSDGHLQDESLTLQLVKRSRPHTRLFACGIGSTANRHVLRILSQCGAGVFEYFNAKSKHSWRKQIEDQMTRLCSPSCHSVSVKWQQLNPDVPEALQAPAQVPSLFLNDRLLVYGFIPHCTQATLCALIQEKEFRTMVSTTELQKTTGTMIHKLAARALIRDYEDGILHENETSHEMKKQTLKSLIIKLSKENSLITQFTSFVAVEKRDENESPFPDIPKVSELIAKEDVDFLPYMSWQGEPQEAVRNQSLLASSEWPELRLSKRKHRKIPFSKRKMELSQPEVSEDFEEDGLGVLPAFTSNLERGGVEKLLDLSWTESCKPTATEPLFKKVSPWETSTSSFFPILAPAVGSYLPPTARAHSPASLSFASYRQVASFGSAAPPRQFDASQFSQGPVPGTCADWIPQSASCPTGPPQNPPSSPYCGIVFSGSSLSSAQSAPLQHPGGFTTRPSAGTFPELDSPQLHFSLPTDPDPIRGFGSYHPSASSPFHFQPSAASLTANLRLPMASALPEALCSQSRTTPVDLCLLEESVGSLEGSRCPVFAFQSSDTESDELSEVLQDSCFLQIKCDTKDDSILCFLEVKEEDEIVCIQHWQDAVPWTELLSLQTEDGFWKLTPELGLILNLNTNGLHSFLKQKGIQSLGVKGRECLLDLIATMLVLQFIRTRLEKEGIVFKSLMKMDDASISRNIPWAFEAIKQASEWVRRTEGQYPSICPRLELGNDWDSATKQLLGLQPISTVSPLHRVLHYSQG

Substrate: NC(=O)c1ccc[n+]([C@@H]2O[C@H](COP(=O)([O-])OP(=O)(O)OC[C@H]3O[C@@H](n4cnc5c(N)ncnc54)[C@H](O)[C@@H]3O)[C@@H](O)[C@H]2O)c1
Experiment: purified protein, by the assay type

| Protein | Km (other: PARP3 ART) [µM] | Km (other: PARP3 FL) [µM] | Km (other: PARP4 ART) [µM] |
| --- | --- | --- | --- |
| B1 | 2170 ± 645 | 131 ± 57 |  |
| B2 |  |  | 92 ± 17 |

— article PMC5934274
